# From article PMC11157767 (Molecular Cancer, 2024)
# Tested on: TFG-MET allograft tumors
# Assay: TFG-MET allograft preclinical trial in CD1 mice, Survival cohort (survival, BLI, body weight)
# Type: in vivo, mouse
# Conditions: Murine allografts
smiles,measurement,setting,value
C[C@@H](Oc1cc(-c2cnn(C3CCNCC3)c2)cnc1N)c1c(Cl)ccc(F)c1Cl [Crizotinib],"BLI signal, individual mice","day 28, drug + RT",1.20E+05
same,"BLI signal, individual mice","day 49, drug + RT",1.10E+05
same,"BLI signal, individual mice","day 63, drug + RT",1.20E+05
same,"BLI signal, individual mice","day 77, drug alone",1.12E+05
same,"BLI signal, individual mice","day 84, drug alone",1.19E+05
same,"BLI signal, individual mice","day 91, drug + RT",1.13E+05
